Values joined by “and” are separate entries in the source; they are usually repeats but may differ in a detail not shown here. Equal entries are not always repeated.
Tested on: SOD1 transgenic mice
Details: riluzole 30 mg/kg per day, drinking water from 60 days of age, N=15
Procedure: Another group of 15 mice served as controls.
The drugs were administered by drinking water starting at 60 days of age. The daily dosages were calculated based on a daily water intake of 6 ml. Fresh solutions were prepared once a week with the total consumed volume measured in order to ensure a constant daily and weekly dose. […] The study was done blindly, meaning that the treatment and the preparation of the drugs were conducted by separate individuals.
The clinical condition of the mice was monitored daily starting at 40 days. The onset of clinical signs was scored by examining the mice for tremors and/or shaking of the limbs, and the position of one or both hind limbs (hanging rather than splaying out) when the mice were suspended in the air by their tail. The age of clinical onset was determined by the age (days) at which loss of splay or tremors of hind limbs were observed. Examining the mice for the loss of righting reflex determined the end stage of the disease. […] The treatment and clinical evaluation were conducted by separate individuals, and thus the neurological signs for determining onset and end stage of disease were scored in a blinded manner.
Data are expressed as the mean +/−standard error of the mean (SEM). […] Survival data were analysed by the Mantel-Cox proportional hazard model. […]

## Nc1nc2ccc(OC(F)(F)F)cc2s1 [riluzole, 2-amino-6-trifluoromethoxy benzothiazole]
  Mean Survival: 234 days and 233.6 days and 233.6000 days

Reference: patent US20040127577A1, “Use of rasagiline with or without riluzole to treat amyotrophic lateral sclerosis” (priority 2002, published 2004)
